The values below come from US9125930B2, “EGFR aptamer inhibitor for use in therapy and diagnosis” (CONSIGLIO NAZIONALE DELLE RICERCHE, priority 2010, dated 2015).

This test deals with A549 cells. Put plainly: Cell viability assay, A549 cells. The test is classed as cell-based, human. To be noted: dose-dependent experiments, 0.05-1 μM. As for the experimental part: Cell viability was assessed with CellTiter 96® AQueous One Solution Cell Proliferation Assay (Promega, Madison, Wis.) according to according to the supplier's instructions. […] The optical density (OD) was measured using a Multilabel Counter (Bio-Rad) at a wavelength of 490 nm and cell viability was calculated by the following formula: Cell viability (%)=(OD treated cells/OD control cells)×100%. FACS Analysis

As to cetuximab [reference compound], the “sensitivity of A549 cell viability” value is “resistant”.
